The list shows a part of the results, in another mix than the full data. Some results for these compounds are left out of this collection, so the calls shown say nothing about other tests. The source made the active and inactive calls.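 The calls were made as follows: active = percent inhibition above a per-plate cutoff, the plate mean of test compounds plus 3 SD (cut at about 30% in these data); inactive = the rest.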
Molecular target: Female germline-specific tumor suppressor gld-1 (Caenorhabditis elegans) (UniProt Q17339)
Assay: GLD-1/TGE RNA complex disruptors, primary screen, biochemical, fluorescence polarization (AID 2280);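 also: 0% = DMSO wells with GLD-1 and probe and 100% = wells lacking GLD-1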
Conditions: purified GLD-1 + fluorescein TGE RNA, at 5.96 µM, active compounds read high

Protein sequences, listed by entry. Tags and fused reporters are not part of them.
UniProt Q17339, whole entry: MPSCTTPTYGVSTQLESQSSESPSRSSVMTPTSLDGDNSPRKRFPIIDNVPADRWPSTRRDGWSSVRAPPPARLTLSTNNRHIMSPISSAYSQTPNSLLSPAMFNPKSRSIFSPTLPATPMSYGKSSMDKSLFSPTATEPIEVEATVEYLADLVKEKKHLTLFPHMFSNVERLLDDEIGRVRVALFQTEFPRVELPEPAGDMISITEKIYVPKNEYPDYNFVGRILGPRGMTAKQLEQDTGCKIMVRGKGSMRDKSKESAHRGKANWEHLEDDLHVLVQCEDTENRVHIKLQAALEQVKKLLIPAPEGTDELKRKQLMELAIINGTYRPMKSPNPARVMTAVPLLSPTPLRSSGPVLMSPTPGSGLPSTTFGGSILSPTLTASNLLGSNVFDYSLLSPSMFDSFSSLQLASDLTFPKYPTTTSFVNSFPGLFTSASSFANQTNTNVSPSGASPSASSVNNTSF

SMILES | inhibition
Cc1ccc(C(=O)NCC2(N3CCCCC3)CCCCC2)cc1 | inactive: -1%
CC(C)N1C(=O)CC2(CCN(CCOC(=O)C(O)(c3ccccc3)c3ccccc3)CC2)C1=O | inactive: 5.09%
COc1cc(SC)ccc1C(=O)NCC1(N(C)C)CCCCC1 | inactive: -1.8%
CCN(CC)CC(C)C(C)OC(=O)C(O)(c1ccccc1)c1ccccc1 (centres undefined) | inactive: 1.61%
CN1[C@@H]2CC[C@H]1CC(OC(=O)C(O)(c1ccccc1)c1ccccc1)C2 (some centres undefined) | inactive: -13%
O=C(NCC1(N2CCCCC2)CCCCC1)c1cc([N+](=O)[O-])ccc1Cl | inactive: -5.44%
O=C(NCC1(N2CCCCC2)CCCCC1)c1cccc(Br)c1 | inactive: -13.6%
Cc1cc(C(=O)NCC2(N3CCCCC3)CCCCC2)ccc1[N+](=O)[O-] | inactive: -7.28%
CCN1CCCC(OC(=O)C2(O)c3ccccc3C=Cc3ccccc32)C1 (centres undefined) | inactive: 2.29%
COc1ccc(C(=O)NCC2(N(C)C)CCCCC2)cc1 | inactive: -4.99%
O=C(NCC1(N2CCCCC2)CCCCC1)c1cc(F)c(F)cc1Cl | inactive: 2.22%
C=CCN1CCN(CCOC(=O)C(O)(c2ccccc2)c2ccccc2)CC1 | inactive: -0.81%
CN(C)C1CCCC1OC(=O)C(O)(c1ccccc1)c1ccccc1 (centres undefined) | inactive: -3.81%
CN(C)c1ccc(C(=O)NCC2(N(C)C)CCCCC2)cc1 | inactive: -3.58%
Cc1ccccc1C(=O)NCC1(N2CCCCC2)CCCCC1 | inactive: -8.48%
O=C(NCC1(N2CCCCC2)CCCCC1)c1cccc(Cl)c1 | inactive: 0.38%
COc1ccc(Cl)cc1C(=O)NCC1(N(C)C)CCCCC1 | inactive: 12%
COc1cccc(C(=O)NCC2(N3CCCCC3)CCCCC2)c1 | inactive: 3.91%
COc1cc(C(=O)NCC2(N(C)C)CCCCC2)c([N+](=O)[O-])cc1OC | inactive: 5.88%
CN(C)C1(CNC(=O)c2ccc(Br)cc2)CCCCC1 | inactive: 5.68%
CN(C)c1cccc(C(=O)NCC2(N(C)C)CCCCC2)c1 | inactive: 6.21%
CC(C)Oc1ccc(C(=O)NCC2(N(C)C)CCCCC2)cc1 | inactive: 4.32%
COc1ccc(Br)c(C(=O)NCC2(N3CCCCC3)CCCCC2)c1 | inactive: -12.7%
O=C(OC1CN2CCC1CC2)C(CO)(c1ccccc1)c1ccccc1 (centres undefined) | inactive: 4.43%

Source: PubChem BioAssay AID2280 (The Scripps Research Institute Molecular Screening Center, 2010)
